Test results reported in patent US20260384451A1, “6-ARYL IMIDAZO[2,1-B]THI/OpXAZOLE-2-CARBOXILIC ACID DERIVATIVE AND PHARMACEUTICAL COMPOSITION FOR TREATING ALZHEIMER'S DISEASE CONTAINING SAME AS ACTIVE INGREDIENT” (published 2026).
Like-named read-outs stand apart in the source and are kept apart here.

By UniProt entry, the sequences of proteins in these tests, tags left out.
UniProt P53779, whole entry: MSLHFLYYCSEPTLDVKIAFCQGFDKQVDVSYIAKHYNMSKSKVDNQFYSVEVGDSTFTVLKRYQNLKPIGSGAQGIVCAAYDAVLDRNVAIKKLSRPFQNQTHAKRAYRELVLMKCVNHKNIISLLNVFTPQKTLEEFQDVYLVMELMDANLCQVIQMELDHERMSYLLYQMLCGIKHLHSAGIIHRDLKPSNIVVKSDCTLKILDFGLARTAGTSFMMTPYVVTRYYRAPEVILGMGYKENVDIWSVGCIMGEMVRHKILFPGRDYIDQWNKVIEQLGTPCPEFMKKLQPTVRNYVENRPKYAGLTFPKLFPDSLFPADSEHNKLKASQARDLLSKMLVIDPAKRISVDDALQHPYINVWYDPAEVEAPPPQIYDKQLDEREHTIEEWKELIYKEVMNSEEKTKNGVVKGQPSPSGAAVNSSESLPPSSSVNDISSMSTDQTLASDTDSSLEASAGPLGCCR
UniProt P45983, whole entry: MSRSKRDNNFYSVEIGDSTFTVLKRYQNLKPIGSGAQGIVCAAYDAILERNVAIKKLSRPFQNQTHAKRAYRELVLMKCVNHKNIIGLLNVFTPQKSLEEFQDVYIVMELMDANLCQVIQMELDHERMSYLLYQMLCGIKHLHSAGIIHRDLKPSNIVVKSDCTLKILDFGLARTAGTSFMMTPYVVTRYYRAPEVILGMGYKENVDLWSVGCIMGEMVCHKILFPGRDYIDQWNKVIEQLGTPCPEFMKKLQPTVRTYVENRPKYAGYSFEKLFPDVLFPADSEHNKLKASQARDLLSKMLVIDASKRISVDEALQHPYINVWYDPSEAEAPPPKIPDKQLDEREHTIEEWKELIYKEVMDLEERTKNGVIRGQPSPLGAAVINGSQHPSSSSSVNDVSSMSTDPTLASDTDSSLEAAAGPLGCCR
UniProt P45984, whole entry: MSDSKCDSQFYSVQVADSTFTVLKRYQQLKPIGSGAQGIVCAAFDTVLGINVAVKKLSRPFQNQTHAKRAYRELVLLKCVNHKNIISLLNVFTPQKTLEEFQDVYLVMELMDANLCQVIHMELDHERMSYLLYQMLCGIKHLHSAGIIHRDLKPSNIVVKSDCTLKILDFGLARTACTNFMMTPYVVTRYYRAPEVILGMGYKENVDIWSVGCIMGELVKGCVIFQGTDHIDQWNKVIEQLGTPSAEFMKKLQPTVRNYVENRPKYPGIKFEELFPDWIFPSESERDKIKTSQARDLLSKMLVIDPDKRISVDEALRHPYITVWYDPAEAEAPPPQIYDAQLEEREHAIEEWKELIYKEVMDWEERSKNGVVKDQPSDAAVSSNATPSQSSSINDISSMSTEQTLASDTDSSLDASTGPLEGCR
UniProt Q16539, whole entry: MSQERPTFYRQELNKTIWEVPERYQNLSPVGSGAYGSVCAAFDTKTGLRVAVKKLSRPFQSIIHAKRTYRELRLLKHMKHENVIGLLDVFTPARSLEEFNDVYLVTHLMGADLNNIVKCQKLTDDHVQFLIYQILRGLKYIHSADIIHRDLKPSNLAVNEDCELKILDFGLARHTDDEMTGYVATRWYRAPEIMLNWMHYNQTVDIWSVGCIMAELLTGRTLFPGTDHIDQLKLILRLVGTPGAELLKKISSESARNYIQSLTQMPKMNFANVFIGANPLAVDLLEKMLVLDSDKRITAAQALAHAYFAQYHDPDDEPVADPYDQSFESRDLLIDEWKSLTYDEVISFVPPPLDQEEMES

Assays:
JNK3 = JNK3 (Homo sapiens, UniProt P53779); experiment: In vitro JNK3 inhibitory activity assay
JNK1 = JNK1 (Homo sapiens, UniProt P45983); experiment: Activity of major compounds against JNK1/2/p38α: JNK1 (selectivity versus JNK3); details: ratio of IC50 JNK1/JNK3
JNK2 = JNK2 (Homo sapiens, UniProt P45984); experiment: Activity of major compounds against JNK1/2/p38α: JNK2 (selectivity versus JNK3); details: ratio of IC50 JNK2/JNK3
p38α = p38α (Homo sapiens, UniProt Q16539); experiment: Activity of major compounds against JNK1/2/p38α: p38α (selectivity versus JNK3); details: ratio of IC50 p38α/JNK3
[1] = read-out: JNK3, Table 8, class symbols
[2] = read-out: JNK3 inhibitory activity (IC50), Table 1, imidazo[2,1-b]thiazole derivatives, class symbols
[3] = read-out: JNK3 inhibitory activity (IC50), Table 3, imidazo[2,1-b]oxazole derivatives, class symbols
[4] = read-out: JNK3 inhibitory activity (IC50), Table 2, imidazo[2,1-b]thiazole derivatives, class symbols

Row | Structure (SMILES) | IC50 (JNK3; [1]) | IC50 (JNK3; [2]) | Selectivity (IC50 fold) JNK1/JNK3 (JNK1) | Selectivity (IC50 fold) JNK2/JNK3 (JNK2) | Selectivity (IC50 fold) p38α/JNK3 (p38α) | IC50 (JNK3; [3]) | IC50 (JNK3; [4]) | IC50 (JNK3; read-out: JNK3 inhibitory activity (IC50), Table 5, imidazo[2,1-b]oxazole derivatives, class symbols)
1 | CNC(=O)c1cn2c(-c3ccnc(N[C@@H]4CCCN(C(=O)N(C)C)C4)n3)c(-c3ccc4ccccc4c3)nc2s1 | 1 to 30 nM | 1 to 30 nM | 11 fold | 2 fold | 41 fold | – | – | –
2 | CCOC(=O)c1cn2c(-c3ccnc(NC4CCOCC4)n3)c(-c3ccc(Cl)c(Cl)c3)nc2s1 | < 1 nM | – | 124 fold | 1 fold | 22 fold | – | < 1 nM | –
3 | CNC(=O)c1cn2c(-c3ccnc(N[C@@H]4CCCN(C(=O)N(C)C)C4)n3)c(-c3ccc4c(c3)OCCO4)nc2s1 | 1 to 30 nM | < 1 nM | 109 fold | 13 fold | 19 fold | – | – | –
4 | CCOC(=O)c1cn2c(-c3ccnc(N[C@@H]4CCCN(C(=O)N(C)C)C4)n3)c(-c3ccc(Cl)c(Cl)c3)nc2s1 | < 1 nM | < 1 nM | 638 fold | 79 fold | 164 fold | – | – | –
5 | CCOC(=O)c1cn2c(-c3ccnc(NC4CCOCC4)n3)c(-c3ccc4ccccc4c3)nc2s1 | < 1 nM | – | 1741 fold | 77 fold | 916 fold | – | < 1 nM | –
6 | NC(=O)c1cn2c(-c3ccnc(N[C@@H]4CCCN(C(=O)C5CC5)C4)n3)c(-c3ccc4ccccc4c3)nc2s1 | 1 to 30 nM | – | 20 fold | 3 fold | – | – | – | –
7 | CNC(=O)c1cn2c(-c3ccnc(NC4CCCCC4)n3)c(-c3ccc4ccccc4c3)nc2o1 | < 1 nM | – | 52 fold | 12 fold | 1063 fold | – | – | < 1 nM

More lines, now with the values ahead:

Row | IC50 (JNK3; [1]) | IC50 (JNK3; [2]) | Selectivity (IC50 fold) JNK1/JNK3 (JNK1) | Selectivity (IC50 fold) JNK2/JNK3 (JNK2) | Selectivity (IC50 fold) p38α/JNK3 (p38α) | IC50 (JNK3; [3]) | IC50 (JNK3; [4]) | IC50 (JNK3; read-out: JNK3 inhibitory activity (IC50), Table 5, imidazo[2,1-b]oxazole derivatives, class symbols) | Structure (SMILES)
8 | < 1 nM | – | 96 fold | 67 fold | 964 fold | – | – | – | CNC(=O)c1cn2c(-c3ccnc(N[C@@H]4CCCN(C(=O)N(C)C)C4)n3)c(-c3ccc(Cl)c(Cl)c3)nc2o1
9 | < 1 nM | – | 389 fold | 28 fold | 1245 fold | < 1 nM | – | – | CNC(=O)c1cn2c(-c3ccnc(N[C@@H]4CCCN(C(=O)C5CC5)C4)n3)c(-c3ccc(Cl)c(Cl)c3)nc2o1
10 | < 1 nM | – | 557 fold | 56 fold | 1316 fold | < 1 nM | – | – | NC(=O)c1cn2c(-c3ccnc(N[C@@H]4CCCN(C(=O)C5CC5)C4)n3)c(-c3ccc(Cl)c(Cl)c3)nc2o1
11 | < 1 nM | – | 113 fold | 18 fold | 246 fold | > 10000 nM | – | – | CCOC(=O)c1cn2c(-c3ccnc(N[C@@H]4CCCN(C(=O)N(C)C)C4)n3)c(-c3ccc(Cl)c(Cl)c3)nc2o1
